{"source": "patent US20150253323A1", "about": "“METHODS AND KITS FOR HIGH THROUGHPUT SCREENING FOR COMPOUNDS TARGETING DNA-BINDING AND RNA-BINDING PROTEINS” (The Florida International University Board of Trustees, priority 2014, published 2015)", "tested_on": "HMGA2-FL814 interaction", "assay": "PDI-ELISA for HMGA2 binding to DNA oligomer FL814", "set-up": "species or system mammalian", "settings": "100 nM compound, 100 nM FL814, 1 μM HMGA2, 2×SSCT; OD450 without drug 1.44"}
{"substance": "quinacrine mustard dihydrochloride", "values": [{"measurement": "OD450 of the PDI-ELISA in the presence of the compound", "result": 1.82}]}
